# This is one part of the list. Calls of active or inactive are those of the source.
# Tested on: Dopamine transporter
# Assay: PubChem AID 652083
# Conditions: CEREP radioligand binding panel, % inhibition at 10 uM, hits give high values
smiles,measurement,value
COC(=O)c1cc(Br)cnc1N1CCC(NC2CCCCC2)C(O)C1 (stereo unspecified),inhibition of specific binding,inactive: 18%
